From publication doi:10.1101/472670v4 (biorxiv, 2019)

Protein sequences, listed by entry. Tags and fused reporters are not part of them.
UniProt P18031, whole entry, looked up: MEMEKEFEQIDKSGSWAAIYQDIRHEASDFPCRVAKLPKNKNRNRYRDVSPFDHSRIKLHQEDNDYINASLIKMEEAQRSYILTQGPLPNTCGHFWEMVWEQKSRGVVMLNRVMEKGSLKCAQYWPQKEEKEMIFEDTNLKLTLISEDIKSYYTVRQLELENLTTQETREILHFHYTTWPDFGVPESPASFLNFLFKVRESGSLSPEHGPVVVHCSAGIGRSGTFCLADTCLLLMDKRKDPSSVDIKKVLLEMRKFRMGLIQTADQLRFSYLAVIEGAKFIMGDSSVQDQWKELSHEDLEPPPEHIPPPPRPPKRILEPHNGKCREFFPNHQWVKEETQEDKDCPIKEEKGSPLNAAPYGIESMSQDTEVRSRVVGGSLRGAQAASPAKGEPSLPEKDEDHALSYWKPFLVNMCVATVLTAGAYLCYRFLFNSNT

target: PTP1B (human recombinant, kit BML-AK822) (Homo sapiens, UniProt P18031); assay: colorimetric malachite green; assay type: biochemical; settings: IR5 phosphopeptide substrate; 30 min; 1% DMSO

Point of comparison: `COc1ccc(-c2csc(N(C(=O)c3ccc(Cl)cc3)c3cc(OC)ccc3OC)n2)cc1`, pIC50 5.12. Against it:
- COc1ccc(-c2csc(N(C(=O)Cc3ccccc3)c3cc(OC)ccc3OC)n2)cc1 — within 0.2 log units, 5.20
- COc1ccc(OC)c(N(C(=O)Cc2ccccc2)c2nc(-c3ccc(C)cc3)cs2)c1 — within 0.2 log units, 5.11
- COc1ccc(-c2csc(N(C(=O)CCc3ccccc3)c3cc(OC)ccc3OC)n2)cc1 — within 0.2 log units, 5.13

pIC50: −log10 of the molar value.
